scFv variants of Ab-14 (heavy chain) against a SARS-CoV-2 spike peptide

Source: Li et al. 2023 (doi:10.1038/s41467-023-39022-2), MIT Lincoln Laboratory and A-Alpha Bio; data file from the FLAb repository.

Antigen: PDVDLGDISGINAS, a 14-residue peptide of the SARS-CoV-2 spike HR2 region.

Each scFv is VH, the linker GGGGSGGGGSGGGGS, VL, as in the parent Ab-14, and differs from it in the CDRs of the heavy chain only.
VH: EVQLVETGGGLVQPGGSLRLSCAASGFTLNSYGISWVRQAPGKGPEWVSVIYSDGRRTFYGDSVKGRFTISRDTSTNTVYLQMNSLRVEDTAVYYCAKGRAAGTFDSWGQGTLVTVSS
VL: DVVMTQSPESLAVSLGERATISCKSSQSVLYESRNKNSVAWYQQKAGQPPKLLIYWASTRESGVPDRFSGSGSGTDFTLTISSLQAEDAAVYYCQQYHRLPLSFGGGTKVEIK

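Phage display of a naive human antibody library on the peptide gave the parent. These sequences belong to a second round, designed from the earlier measurements on random variants of the parent. Their group label is 14H_En_HC (En: ensemble of fine-tuned language models; HC: hill climbing; a sequence that several methods proposed may carry one label only). Affinity was read by AlphaSeq, a pooled yeast mating assay with surface-displayed partners. Mating (16 h, 30 °C) was followed by selection of diploids and sequencing of their barcodes. A regression on co-assayed BCL2-family reference pairs converts the normalised counts of each replicate to an apparent Kd. There are six technical replicates.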

Each variant is given by its three heavy chain CDRs, as the data file delimits them; those of the parent are GFTLNSYGIS, VIYSDGRRTFYGDSVK, GRAAGTFDS.
Scale: log10 of Kd in nM, estimated from mating counts; low values are strong binders.
A mean of the replicates is given; it leaves out those without a signal.
"nd" marks a missing value. The strain was present, yet no cells mated with the target were sequenced in that replicate, which points to weak or no binding.
The authors' rule: three or more of the six replicates give a measured affinity, fewer mean a poor binder.
Values of this round are not directly comparable with the first-round values of the same sequences.
As a blank, each scFv also met three strains without target: over all heavy chain designs, 1% of these pairings were detected, typically at 2.08 and seldom below 0.84. The control count says in how many pairings with the empty strains this scFv gave a signal.
Of ten entries with the parent sequence, four were seen in most replicates (averages 0.34 to 2.37), three in one and three in none, so single entries are noisy.

With GFDLNEYGIS, VIYADGRRTFYADSVK, GTVAGTFDV the result was -0.37, -0.50, -0.52, -0.59, -0.55, -0.46 (mean -0.50; controls 0 of 18).
With GFDLNEYGIS, VIYADGRRTFYSDSVK, GEVAGTFVS the result was -0.53, -0.62, -0.03, -0.75, -0.58, -0.58 (mean -0.52; controls 0 of 18).
With GFDLNEYGIS, VIYADGKRTFYSDSVK, GNVAGTFDS the result was -0.56, -0.69, -0.93, -0.95, -0.98, -0.85 (mean -0.82; controls 0 of 18).
With GFDLNEYGIS, VIYADGMRTFYSDSVK, GNAAGTFDV the result was -0.42, -0.31, -0.54, -0.94, -0.33, -0.40 (mean -0.49; controls 0 of 18).
With GFDLNEYGIS, VIYADGRRTFYADSVK, GNNAGTFDS the result was -0.47, -0.72, -0.70, -0.84, -0.70, -0.81 (mean -0.71; controls 0 of 18).
With GFDLDEYGIS, VIYADGMRTFYADSVK, GELAGTFFS the result was 0.05, -0.31, -0.58, -0.67, -0.48, -0.16 (mean -0.36; controls 0 of 18).
With GFDLNEYGIS, VIYADGRRKFYADKVK, GENAGTFDV the result was -0.40, 0.24, -0.15, -0.30, -0.21, 0.16 (mean -0.11; controls 0 of 18).
With GFDLNEYGIS, VIYADGRRTFYSDSVK, GVNAGTFDV the result was 0.64, -0.23, -0.47, 0.28, 1.01, 0.05 (mean 0.21; controls 1 of 18).
With GFDLNEYGIS, VIYADGRRTFYTDSVK, GELAGTFDV the result was -0.61, -0.31, -0.60, -0.67, -0.74, -0.50 (mean -0.57; controls 1 of 18).
With GFDLNEYGIS, VIYADGMRTFYTDDVK, GEVAGTFDL the result was -0.55, -0.53, -0.70, -1.01, -0.46, -0.25 (mean -0.59; controls 0 of 18).
With GFNLNEYGIS, VIYADGRRSAYSDSVK, GEAAGTFDV the result was nd, 1.49, -0.05, -0.02, 0.09, 0.24 (mean 0.35; controls 0 of 18).
With GFDLDEYGIS, VIYADGMRTFYADSVK, GEAAGTFDS the result was -0.10, -0.12, -0.47, -0.68, -0.52, -0.31 (mean -0.37; controls 1 of 18).
With GFDLNEYGIS, VIYADGMRTQYADSVK, GNAAGTFDS the result was nd, -0.55, 0.33, 0.48, 0.08, -0.28 (mean 0.01; controls 0 of 18).
With GFDLNEYGIS, VIYADGRRTFYTDSVK, GEVAGTFDN the result was nd, nd, nd, nd, nd, nd (controls 0 of 18).
With GFDLNEYGIS, VIYADGRRTFYTDNVK, GQNAGTFDM the result was -1.00, -0.43, -0.94, -0.63, -1.22, -0.16 (mean -0.73; controls 0 of 18).
With GFTLDEYGIS, VIYADGRRTAYADSVK, GNVAGTFDQ the result was -0.44, -0.13, -0.17, -0.64, -0.53, -0.21 (mean -0.35; controls 0 of 18).
With GFDLNEYGIS, VIYADGRRTFYADSVK, GNAAGTFDM the result was 0.49, 0.42, 0.08, -0.62, 0.42, 0.43 (mean 0.20; controls 0 of 18).
With GFDLNEYGIS, VIYADGMRTFYVDSVK, GVNAGTFDS the result was -0.62, -0.70, -0.47, -0.56, -1.05, -0.39 (mean -0.63; controls 0 of 18).
With GFDLNEYGIS, VIYADGRRTAYIDSVK, GHEAGTFDS the result was 0.43, 1.01, 0.20, 0.14, 0.00, 0.31 (mean 0.35; controls 0 of 18).
With GFDLDEYGIS, VIYADGRRTFYADSVK, GTNAGTFLD the result was 0.18, -0.01, 0.19, -0.23, -0.02, 0.40 (mean 0.08; controls 1 of 18).
With GFDLNEYGIS, VIYADGRRTFYTDSVK, GEVAGTFDV the result was -0.21, -0.30, -0.44, -0.47, -0.64, -0.27 (mean -0.39; controls 0 of 18).
With GFDLNEYGIS, VIYADGKRTAYADSVK, GKVAGTFNV the result was -0.58, -0.51, -0.68, -0.97, -0.32, -0.69 (mean -0.63; controls 0 of 18).
With GFDLNEYGIS, VIYADGRRTAYSDKVK, GNFGGTFDI the result was 0.46, 0.23, 0.27, 1.52, -0.12, 1.65 (mean 0.67; controls 0 of 18).
With GFDLNEYGIS, VIYADGRRTFYHDSVK, GNLAGTFDQ the result was -0.56, -0.52, -1.30, -1.14, -0.59, -0.87 (mean -0.83; controls 0 of 18).
With GFDLNEYGIS, VIYADGRRTAYADSVK, GKAAGTFDS the result was -0.09, -0.52, -0.31, -0.59, -0.42, -0.12 (mean -0.34; controls 1 of 18).
With GFDLNEYGIS, VIYADGQRTFYVDSVK, GVNAGTFDS the result was 0.02, -0.21, -0.26, -0.08, -0.31, -0.19 (mean -0.17; controls 0 of 18).
With GFDLNEYGIS, VIYADGKRTFYSDSVK, GEIAGTFIQ the result was -0.25, -0.64, -0.36, -1.02, -0.56, -0.27 (mean -0.52; controls 0 of 18).
With GFDLNEYGIS, VIYADGRRTFYADSVK, GHVAGTFVM the result was nd, nd, 0.59, 0.58, 0.16, nd (mean 0.44; controls 0 of 18).
With GFDLDEYGIS, VIYADGMRTFYADSVK, GNLAGTFDV the result was -0.61, -0.39, -0.59, -0.72, -0.48, -0.56 (mean -0.56; controls 1 of 18).
With GFNLDEYGIS, VIYADGRRTFYADSVK, GQVAGTFDS the result was 0.37, -0.03, -0.18, -0.06, 0.27, 0.13 (mean 0.08; controls 0 of 18).
With GFDLNEYGIS, VIYADGMRTFYSDSVK, GNQAGTFDS the result was 0.43, 0.42, -0.34, -0.38, 0.23, 0.47 (mean 0.14; controls 0 of 18).
With GFNLDEYGIS, VIYADGRRTFYTDSVK, GGNAGTFDV the result was nd, 2.51, 1.62, 2.34, 1.70, 1.84 (mean 2.00; controls 1 of 18).
With GFDLNEYGIS, VIYADGVRTFYSDSVK, GEIAGTFDS the result was -0.76, -0.83, -0.45, -1.07, -0.87, -0.32 (mean -0.72; controls 0 of 18).
With GFDLDEYGIS, VIYADGRRTFYQDSVK, GNVAGTFDE the result was 0.61, 0.47, 0.91, 2.71, 0.31, 0.83 (mean 0.97; controls 1 of 18).
With GFDLNEYGIS, VIYADGMRTHYTDSVK, GNEAGTFDQ the result was 0.01, 0.09, 1.95, 0.68, -0.02, 1.68 (mean 0.73; controls 0 of 18).
With GFDLNEYGIS, VIYADGRRTQYIDSVK, GDAAGTFDV the result was 0.96, 0.94, 0.32, -0.04, -0.20, -0.55 (mean 0.24; controls 0 of 18).
With GFDLNEYGIS, VIYADGRRTFYADSVK, GNSAGTFNV the result was -0.36, -0.49, -0.61, -0.62, -0.64, -0.65 (mean -0.56; controls 0 of 18).
With GFDLEDYGIS, VIYADGQRTAYADSVK, GEAAGTFDL the result was 0.88, 0.64, 0.30, 0.80, 0.84, 0.92 (mean 0.73; controls 0 of 18).
With GFSLDEYGIS, VIYADGRRTFYADSVK, GNMAGTFDS the result was -0.05, -0.60, 0.12, -0.28, -0.03, -0.24 (mean -0.18; controls 0 of 18).
With GFNLDEYGIS, VIYADGRRTFYSDSVK, GEAGGTFDV the result was -0.43, -0.94, -0.59, nd, -0.91, -0.25 (mean -0.62; controls 0 of 18).